Our source for the IC50 values is publication PMC6017663, “Investigation of an ^18F-labelled Imidazopyridotriazine for Molecular Imaging of Cyclic Nucleotide Phosphodiesterase 2A” (Molecules : A Journal of Synthetic Chemistry and Natural …, 2018).

By UniProt entry, the sequences of proteins in these tests, tags left out. Residues count along the entry.
UniProt O00408, 2-941: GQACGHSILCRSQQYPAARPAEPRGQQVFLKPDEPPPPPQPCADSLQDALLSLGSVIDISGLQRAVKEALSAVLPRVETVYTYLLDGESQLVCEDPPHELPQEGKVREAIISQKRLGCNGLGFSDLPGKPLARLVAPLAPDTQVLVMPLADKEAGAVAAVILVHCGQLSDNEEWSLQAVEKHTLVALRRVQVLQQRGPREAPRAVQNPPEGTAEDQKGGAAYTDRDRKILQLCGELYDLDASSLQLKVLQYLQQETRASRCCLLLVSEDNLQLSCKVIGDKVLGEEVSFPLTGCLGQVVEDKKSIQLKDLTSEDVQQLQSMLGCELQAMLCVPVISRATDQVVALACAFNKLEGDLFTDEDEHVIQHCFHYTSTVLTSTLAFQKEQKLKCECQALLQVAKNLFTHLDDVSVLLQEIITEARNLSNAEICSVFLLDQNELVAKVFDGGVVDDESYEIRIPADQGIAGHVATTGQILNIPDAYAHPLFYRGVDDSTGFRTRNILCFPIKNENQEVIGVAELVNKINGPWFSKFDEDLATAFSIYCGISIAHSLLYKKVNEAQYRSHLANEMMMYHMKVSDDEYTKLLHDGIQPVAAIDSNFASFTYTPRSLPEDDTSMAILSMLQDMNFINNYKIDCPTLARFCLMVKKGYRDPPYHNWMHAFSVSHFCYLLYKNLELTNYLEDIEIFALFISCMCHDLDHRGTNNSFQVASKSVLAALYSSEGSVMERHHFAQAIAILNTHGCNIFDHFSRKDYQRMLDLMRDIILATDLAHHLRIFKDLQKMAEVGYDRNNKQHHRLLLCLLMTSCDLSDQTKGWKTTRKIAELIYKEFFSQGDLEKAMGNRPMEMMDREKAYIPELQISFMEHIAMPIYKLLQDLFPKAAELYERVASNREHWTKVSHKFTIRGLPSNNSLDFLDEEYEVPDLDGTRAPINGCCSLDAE

In this test the target is cyclic nucleotide phosphodiesterase 2A (PDE2A) (Homo sapiens, UniProt O00408). The test can be described thus: enzyme inhibition assay with human recombinant PDE2A (BioCrea). It counts as biochemical. The conditions noted are these: read-out: IC50 hPDE2A.

On to `CCCCOc1ccc(F)c(-c2nc(C)c3nnc4ccc(OCCF)nc4n23)c1` [TA5, 9-(5-Butoxy-2-fluorophenyl)-2-(2-fluoroethoxy)-7-methylimidazo[5,1-c]pyrido[2,3-e]-[1,2,4]triazine], for which the IC50 (commonly the concentration that inhibits the measured activity by half) stood at 3 nM.
